Screens as filed in PubChem.
Sampled rows, rich in hits. Any-hit rate of the full collection: about 3.7%.
TCR act – activators of T cell receptors; AID 504894; 330,000 tested, under 10 active; primary human leukocytes, anti-CD3, IL-2 HTRF, 48 h; Potency, µM (series often up to 9.22 µM), without a hit: at the top dose activation of IL-2 secretion, actives largely listed as activators; note: % of control where 0% means no effect
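Primary human leukocytes incubated 48 hr with anti-CD3 beads plus compound, without co-stimulation. Secreted IL-2 measured by HTRF (europium cryptate/d2 anti-IL-2 pair, 320 nm excitation, 665 nm emission).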
A549 viability – kills or reduces viability of A549 cells in Nrf2 counter-screen; A549 ARE-Fluc cells, CellTiter-Fluor viability, 18-24 h; Potency, µM (series often up to 46 µM), without a hit: at the top dose activity change, negative = cytotoxicity, actives largely listed as inhibitors; 390,000 compounds, 0.16% hits; AID 504648; note: potency is the fitted concentration of half-maximal effect; % is set by controls: 0 for no effect and ±100 for the full control effect
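Cytotoxicity counterscreen: CellTiter-Fluor fluorescence was measured in A549 ARE_Fluc cells after 18-24 h of compound exposure in a concentration series. The subsequent BugLite luminescent read reports ARE-luciferase activity.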
Nrf2 block – blocks Nrf2 signaling. A549 ARE-Fluc reporter, luciferase luminescence, 18-24 h. Potency, µM (series often up to 46 µM), for inactives: top-dose activity change, negative = inhibition, usual class: inhibitors. 360,000 compounds, 2.1% hits. AID 504444; note: potency is the fitted concentration of half-maximal effect; % is set by controls: 0 for no effect and ±100 for the full control effect; nearly all actives have a fitted effect of over 60% in size
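Quantitative HTS in A549 cells stably bearing an antioxidant response element-firefly luciferase construct. Inhibition of Nrf2-driven transcription was scored by luminescence after 18-24 h of compound exposure at 37 °C.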
miR-21 reporter – miR-21 reporter, rising signal; Potency, µM (titrated, usually from 38.3 µM), without a hit: at the highest dose reporter change, positive = more light; AID 2288; 340,000 tested, under 10 active; HeLa miR-21 FLuc reporter, luciferase, 48 h; active = well fitted rising curve with a large enough effect; inconclusive = small, poorly fitted or top-dose-only effect; inactive = no such curve, though single readings can be large or run the other way;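 note: % of control where 0% means no effect; miR-21 action dims this reporter so a rising signal means less miR-21 action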
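HeLa cells stably expressing CMV-driven firefly luciferase with a downstream miR-21 binding sequence, endogenously expressing miR-21, were treated with titrations (up to about 40uM final) for 48 hours at 37 degree Celsius. Luciferase luminescence was read after lysis.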
Nrf2 ARE act – activates Nrf2 signaling. 410,000 compounds, 0.31% hits. AREc32 ARE-luciferase reporter (MCF7-derived line), luminescence, 24 h. Potency, µM (titrated, usually from 46.1 µM), for the others: at the highest dose activation, usual class: activators. AID 624171; note: potency is the fitted concentration of half-maximal effect; % of control where 0% means no effect; nearly all actives have a fitted effect of over 65% in size
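AREc32 cells carrying an ARE-driven firefly luciferase, 1000 cells/well in OPTI-MEM with 5% FBS, dosed after overnight attachment and incubated 24 hr at 37 deg C. Steady-Glo luminescence read after 30 min at RT.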
ClpP mod – qHTS Assay for Activators of ClpP; purified B. subtilis ClpP, FRET peptide cleavage, 20 min; Potency, µM (titrated, usually from 57.5 µM), for inactives: at the top dose activity change, negative = active; 340,000 compounds, 1.9% hits; AID 651965, 2013; active = well fitted falling curve with a large enough effect; inconclusive = small, poorly fitted or top-dose-only effect; inactive = no such curve, though single readings can be large or run the other way; note: potency is the fitted concentration of half-maximal effect; the source files actives as falling curves though it sought activators and does not explain the sign; nearly all actives have a fitted effect of over 65% in size
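ClpP 10 microg/mL final, pH 8 Tris/KCl buffer with BSA, glycerol, Tween-20; compound pinned in; FRET-FV substrate; RT 20 min; Ex320/Em430; ΔFRET vs ADEP 5.8 microM, DMSO, no enzyme.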
Starred values were filed as active, the others as inactive; [ ] = remark or other dose. Unless noted, calls come from the whole dose curve; as a rule, active = well fitted curve in the direction sought with a large enough effect; inconclusive = small, poorly fitted or top-dose-only effect, or another doubt; inactive = no such curve, though single readings can be large; an effect the other way counts as inactive or inconclusive.

COc1ccc(CNC(=O)C(C)OC(=O)CN2C(=O)COc3ccccc32)cc1 (stereo unspecified) was read as TCR act 4%, A549 viability 4%, Nrf2 block 0%, miR-21 reporter -3%, Nrf2 ARE act 0% and ClpP mod -3%.
CCOc1ccc(NC(=O)CN2CCN(c3ccc(Cl)cc3)CC2)cc1 was read as A549 viability -5%, miR-21 reporter 6%, Nrf2 ARE act 0% and ClpP mod 0%.
`O=C(O)C1C=CCC(C(=O)O)C1` (stereo unspecified) gave Nrf2 ARE act -1% and ClpP mod -2%.
COc1ccccc1NC(=O)NCCc1ccccc1 was read as TCR act -1%, A549 viability 3%, Nrf2 block 15%, miR-21 reporter -7%, Nrf2 ARE act 0% and ClpP mod 0%.
COc1ccccc1NC(=O)C(NC(=O)OC(C)(C)C)C(C)OCc1ccccc1 (stereo unspecified) was read as TCR act -54%, A549 viability -5%, Nrf2 block 23µM*, miR-21 reporter -4%, Nrf2 ARE act 0% and ClpP mod 0%.
CC(=O)/C=C/c1ccc2c(c1)S(=O)(=O)N(C1CCCC1)[C@H]2CC(C)=O was read as ClpP mod -2%.
CCNc1nc(NC(C)(C)C)nc(N2CCCC2)n1 was read as TCR act 3%[46.1 µM], A549 viability inconclusive, Nrf2 block -16%, miR-21 reporter -11%, Nrf2 ARE act -1% and ClpP mod 3%.
`CC(C)(C)Nc1nc(N2CCCC2)nc(N2CCCC2)n1` gave TCR act -7%, A549 viability 15µM*, Nrf2 block inconclusive, miR-21 reporter -5%, Nrf2 ARE act 0% and ClpP mod -2%.
Screening CC(C)c1ccc(NC(=O)CCS(=O)(=O)c2ccc(Br)s2)cc1 returned A549 viability -2%, Nrf2 block 26µM*, miR-21 reporter 22%, Nrf2 ARE act 6% and ClpP mod -2%.
CCOC(=O)c1ccc(NC(=O)CCS(=O)(=O)c2ccc(Br)s2)cc1 was read as TCR act -3%, A549 viability 0%, Nrf2 block -3%, miR-21 reporter 1%, Nrf2 ARE act 3% and ClpP mod 32µM*.
Screening COc1ccc(NC(=O)CCS(=O)(=O)c2ccc(Br)s2)cc1 returned TCR act -2%, A549 viability -1%, Nrf2 block -24%, miR-21 reporter -3% and Nrf2 ARE act 0%.
CC(C(=O)NCc1cccc(Cl)c1)N1C(=O)c2ccccc2C1=O (stereo unspecified) was read as TCR act -2%, A549 viability 0%, Nrf2 block 2%, miR-21 reporter -2% and Nrf2 ARE act 0%.
`Cc1cc2c(c(C)c1Cl)C(c1ccc3c(c1)OCO3)CC(c1ccccc1)O2` (stereo unspecified) gave A549 viability 9% and Nrf2 block 19%.
Cc1ccc(C(=O)N2c3ccccc3N(Cc3ccccc3)C(=O)C2(C)C)cc1 was read as TCR act -1%, A549 viability -13%, Nrf2 block 12µM*, miR-21 reporter inconclusive, Nrf2 ARE act 1% and ClpP mod -2%.
`Cc1ccccc1OCc1ccc(-c2nc(C#N)c(NCCCN(C)C)o2)o1` gave A549 viability 2%, Nrf2 block 14%, miR-21 reporter -12%, Nrf2 ARE act 5% and ClpP mod 4%.
`O=C(N/N=C/c1ccc(OC(=O)c2ccccc2Cl)cc1)c1ccccn1` gave TCR act 5%, A549 viability 1%, Nrf2 block inconclusive, miR-21 reporter -30%, Nrf2 ARE act 1% and ClpP mod 15%.
For O=C(N/N=C/c1ccc(OC(=O)c2ccccc2Cl)cc1)c1cc(O)cc(O)c1 the results were TCR act -2%, A549 viability 1%, Nrf2 block 6.5µM*, miR-21 reporter -7%, Nrf2 ARE act 0% and ClpP mod -2%.
CC(C)(C)OC(=O)N1CC23CC(c4ccc(F)cc4)C(CC2S1(=O)=O)O3 (stereo unspecified) was read as A549 viability 0% and Nrf2 block 14%.
COc1ccc(NS(=O)(=O)c2ccc(Oc3ncccn3)cc2)cc1 was read as TCR act -28%, A549 viability 0%, Nrf2 block 21µM*, miR-21 reporter 7%, Nrf2 ARE act 0% and ClpP mod -3%.
COc1ccc(NS(=O)(=O)c2ccc(S(=O)(=O)N3CCOCC3)cc2)cc1 was read as TCR act 4%, A549 viability 0%, Nrf2 block inconclusive, miR-21 reporter 6%, Nrf2 ARE act 0% and ClpP mod 16µM*.

The list goes on, starting with the last four of the part before.
For O=C(N/N=C/c1ccc(OC(=O)c2ccccc2Cl)cc1)c1cc(O)cc(O)c1 the results were TCR act -2%, A549 viability 1%, Nrf2 block 6.5µM*, miR-21 reporter -7%, Nrf2 ARE act 0% and ClpP mod -2%.
CC(C)(C)OC(=O)N1CC23CC(c4ccc(F)cc4)C(CC2S1(=O)=O)O3 (stereo unspecified) was read as A549 viability 0% and Nrf2 block 14%.
COc1ccc(NS(=O)(=O)c2ccc(Oc3ncccn3)cc2)cc1 was read as TCR act -28%, A549 viability 0%, Nrf2 block 21µM*, miR-21 reporter 7%, Nrf2 ARE act 0% and ClpP mod -3%.
COc1ccc(NS(=O)(=O)c2ccc(S(=O)(=O)N3CCOCC3)cc2)cc1 was read as TCR act 4%, A549 viability 0%, Nrf2 block inconclusive, miR-21 reporter 6%, Nrf2 ARE act 0% and ClpP mod 16µM*.
`O=[N+]([O-])c1ccc(Oc2ccc(S(=O)(=O)Nc3ccccc3)cc2)cc1` gave TCR act 0%[46.1 µM], A549 viability -2%, Nrf2 block 18µM*, miR-21 reporter 5%, Nrf2 ARE act 3% and ClpP mod 1%.
`COc1ccc(NS(=O)(=O)c2ccc(-c3coc(C)n3)cc2)cc1` gave TCR act -4%, A549 viability 2%, Nrf2 block 16µM*, miR-21 reporter -1%, Nrf2 ARE act 2% and ClpP mod -4%.
Screening COc1ccc(NS(=O)(=O)c2ccc(S(=O)(=O)N3CCCC3)cc2)cc1 returned TCR act 1%, A549 viability 1%, Nrf2 block inconclusive, miR-21 reporter 15%, Nrf2 ARE act 3% and ClpP mod -5%.
Screening Cc1csc2nc(COC(=O)c3ccc(Cl)c([N+](=O)[O-])c3)cc(=O)n12 returned TCR act -3%, A549 viability -5%, Nrf2 block 7% and Nrf2 ARE act 0%.
Screening Cc1cccc(NS(=O)(=O)c2ccc(Oc3ccccc3)cc2)n1 returned TCR act 0%, A549 viability -11%, Nrf2 block inconclusive, miR-21 reporter -5%, Nrf2 ARE act -1% and ClpP mod 22µM*.
Cc1cc2c(s1)c1cnn(Cc3cc(C(F)(F)F)ccc3F)c(=O)c1n2C was read as A549 viability 0% and Nrf2 block 4%.
Screening Nc1ccccc1C(=O)NCc1ccc(Cl)cc1 returned TCR act -2%, A549 viability 7%, Nrf2 block 2%, miR-21 reporter -10%, Nrf2 ARE act 2% and ClpP mod 7.1µM*.
`COc1cccc(CNC(=O)c2ccccc2N)c1` gave TCR act -1%, A549 viability -1%, miR-21 reporter -15%, Nrf2 ARE act 0% and ClpP mod 5.6µM*.
